Experiments:
[1] = tested on: cells from the seminiferous tubules of busulfan-treated immature (7-day-old) ICR mice; test: Effect of FSH on spermatogenesis in vitro in MCS, cells from busulfan-treated mice (mimicking azoospermic syndrome); type: cell-based, mouse; conditions: FSH 25 U/ml from the beginning of the culture; cells from busulfan (45 mg/kg)-treated mice; four weeks
Method: (§1) Briefly, cells were cultured (2×10^5 cells/well/500 μl) in MEM medium which contained sodium bicarbonate 7.5%, L-glutamine 200 mM, non-essential amino acids 1%, penicillin/streptomycin and gentamicin 10 mg/ml, and were incubated over 2 nights in 24 wells plate at 37° C., 5% CO2. The nonadherent cells were collected and cultured ([…] cells/well/500 μl) in methylcellulose (42%; R&D, Minneapolis, USA) [as a three-dimension (3D) culture system], which contained the StemPro-34 medium (Gibco, USA) enriched with: 10% KSR (knockout serum replacement, Gibco, USA) and the following growth factors: Glial cell-derived neurotrophic factor (GDNF; 10 ng/ml; Biolegend), Leukemia inhibitory factor (LIF; 10 ng/ml; Biolegend), epidermal growth factors (EGF; 20 ng/ml; Biolegend, CA, USA), bFGF (basic fibroblast growth factor) (10 ng/ml; Biolegend).
After two weeks of culture, various concentrations of testosterone (T) such as 10^−8 M, 10^−7 M or 10^−6 M (as shown in FIG. 8A), or retinoic acid (“RA”, such as 10^−8 M, 10^−7 M or 10^−6 M as shown in FIG. 8C) were added to the cultures. After additional two weeks of culture (total culture of four weeks) cells were collected from the in vitro culture system, and examined for different markers of spermatogenesis: pre-meiotic markers such as: VASA, CD9, meiotic markers such as: CREM and BOULE and post-meiotic markers such as ACROSIN by qPCR analysis. […]

[2] = tested on: cells isolated from seminiferous tubules of ICR immature (7-day-old) mice; test: Effect of hormones and retinoic acid on development of mouse spermatogenesis in vitro in methylcellulose culture system (qPCR of markers); type: cell-based; conditions: FSH 25 U/ml from the beginning of the culture, cells from normal mice, 4 weeks
Method: Cells were enzymatically isolated from seminiferous tubules of ICR mice (which were developed by the Institute of Cancer Research, also called CD-1) immature mice (7-day-old mice). These cells were cultured in vitro in methylcellulose culture system essentially as described in the “General Materials and Experimental Methods” section above, with some modifications to the culture medium as described below.
as §1
Cells were cultured for 4 weeks. […]

Substance: FSH: a gonadotropin, a glycoprotein polypeptide hormone
- expression of the meiotic marker CREM [1]: significantly increased
- expression of the meiotic/post-meiotic marker ACROSIN [1]: significantly increased
- expression of the meiotic marker CREM [2]: increased
- expression of the meiotic/post-meiotic marker ACROSIN [2]: increased
